According to ChEMBL document CHEMBL1138974 (Bioorg Med Chem Lett, 2006):

Species on record: Mus musculus
Test: Ratio of drug level in brain against plasma in mouse
Conditions: read-out: BPR

Work on `O=C1NC[C@@H](c2ccccc2)C12CCN(C1CCCCC1c1ccccc1)CC2` (stereo in doubt; 27) yielded a Kp of 4.1.
